Data: ChEMBL document CHEMBL3880438, “Identification of modulators of GPR41 or GPR42 activity” (2001)
Active and inactive are the calls of the source. The calls are words filed in the database; no cut-off is given here.

Biological target: T1, Free fatty acid receptor 3 (Rattus norvegicus) (UniProt B2GV46)
T1 sequence (whole entry): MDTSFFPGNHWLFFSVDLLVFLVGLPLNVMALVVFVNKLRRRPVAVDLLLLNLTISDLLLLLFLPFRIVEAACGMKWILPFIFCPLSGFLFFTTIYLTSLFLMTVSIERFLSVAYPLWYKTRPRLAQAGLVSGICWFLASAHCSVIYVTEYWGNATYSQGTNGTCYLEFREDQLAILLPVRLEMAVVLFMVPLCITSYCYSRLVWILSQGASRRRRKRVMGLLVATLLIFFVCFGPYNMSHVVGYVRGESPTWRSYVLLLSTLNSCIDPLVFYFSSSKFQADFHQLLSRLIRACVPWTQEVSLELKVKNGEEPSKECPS
Assay: Agonist activity at rat GPR41 expressed in HEK293T cell membranes co-expressing Go1alpha protein assessed as stimulation of [35S]GTPgammaS binding at 0.1 microM to 0.1 M incubated for 30 mins by scintillation counting method
Format: functional
Conditions: HEK-293T

Structure (SMILES): CCCC(=O)[O-].CCCCC(=O)[O-].[K+].[Na+]
- Activity: Active
